# Measured values: PubChem BioAssay (NCI)
# Values joined by “and” are separate entries in the source; they are usually repeats but may differ in a detail not shown here. Identical values can stand only once. Only a part is listed here, and it is no random draw.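 Testing used 96-well plates and a 48-hour single-concentration exposure. Example: -40 means 40% of the starting cells died.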 Active and inactive are the calls of the source. How the source made its calls: active means growth percent below 10; inactive means the rest.
# Key:
# Experiment in all cases: NCI-60 one-dose screen, 48 h (100 = growth as untreated, 0 = no growth, -100 = all killed)
# Details in all cases: 10 µM
# NCI/ADR-RES ovarian = system: NCI/ADR-RES ovarian
# T-47D breast = system: T-47D breast
# BT-549 breast = system: BT-549 breast
# MDA-MB-435 melanoma = system: MDA-MB-435 melanoma
# SW-620 colon = system: SW-620 colon
# MCF7 breast = system: MCF7 breast
# HCT-116 colon = system: HCT-116 colon
# HCC-2998 colon = system: HCC-2998 colon
# KM12 colon = system: KM12 colon
Structure (SMILES),growth (NCI/ADR-RES ovarian),growth (T-47D breast),growth (BT-549 breast),growth (MDA-MB-435 melanoma),growth (SW-620 colon),growth (MCF7 breast),growth (HCT-116 colon),growth (HCC-2998 colon),growth (KM12 colon)
c1ccc(CN2CCC(Nc3ccccc3)CC2)cc1,inactive: 96.1%,inactive: 95.7%,inactive: 124%,inactive: 102%,inactive: 100%,inactive: 97.7%,inactive: 113%,inactive: 102%,inactive: 111%
O=C1C(=O)N(CN(CCCl)CCCl)c2ccccc21,inactive: 100%,inactive: 94.4%,inactive: 102%,inactive: 105%,inactive: 97.9%,inactive: 95.9%,inactive: 99.6%,inactive: 101%,inactive: 106%
CCOc1ccc(N(CCCl)CCCl)cc1,inactive: 73.2%,inactive: 64.9%,inactive: 79.7%,inactive: 73.6%,inactive: 62.9%,inactive: 32.6%,inactive: 72.3%,inactive: 97.8%,inactive: 90.9%
ClCCN1CCN(CCCl)CC1,inactive: 103% and inactive: 100%,inactive: 90.5% and inactive: 92%,inactive: 126% and inactive: 96.5%,inactive: 101% and inactive: 105%,inactive: 108% and inactive: 98.1%,inactive: 87.5% and inactive: 101%,inactive: 104% and inactive: 101%,inactive: 103% and inactive: 106%,inactive: 111% and inactive: 102%
COc1cc(CN(CCCl)CCBr)cc(OC)c1,inactive: 113%,inactive: 109%,inactive: 102%,inactive: 104%,inactive: 104%,inactive: 96.3%,inactive: 103%,inactive: 98.7%,inactive: 109%
O=C1CCN(Cc2ccccc2)CC1,inactive: 109%,inactive: 108%,,inactive: 102%,inactive: 101%,inactive: 107%,inactive: 101%,inactive: 117%,inactive: 106%
O=C(O)CCc1ccc(CSCCCl)cc1,inactive: 107%,inactive: 102%,inactive: 107%,inactive: 104%,inactive: 105%,inactive: 91.6%,inactive: 105%,inactive: 94.8%,inactive: 102%
O=C1CCN(CCc2ccccc2)CC1,inactive: 87.3%,inactive: 12.8%,inactive: 101%,inactive: 102%,inactive: 99.9%,inactive: 95.2%,inactive: 109%,inactive: 86.7%,inactive: 138%
CC(=O)N(c1ccccc1)C1CCNCC1,inactive: 114%,inactive: 112%,,inactive: 112%,inactive: 109%,inactive: 92.6%,inactive: 115%,inactive: 104%,inactive: 118%
O=P1(N(CCCl)CCCl)SCCCS1,inactive: 100%,inactive: 98.7%,inactive: 131%,inactive: 112%,inactive: 104%,inactive: 95.3%,inactive: 109%,inactive: 100%,inactive: 114%
CCOP(=O)(Cl)OCC,inactive: 105%,inactive: 93.5%,inactive: 104%,inactive: 108%,inactive: 106%,inactive: 93.1%,inactive: 102%,inactive: 102%,inactive: 109%
OCC#CCN(CCCl)CCCl,inactive: 83.5%,inactive: 97.2%,inactive: 97.8%,inactive: 99%,inactive: 92.4%,inactive: 89%,inactive: 102%,inactive: 101%,inactive: 98.2%
CCCCOc1ccc(N(CCCl)CCCl)cc1,inactive: 101%,inactive: 102%,inactive: 112%,inactive: 107%,inactive: 104%,inactive: 86.2%,inactive: 100%,inactive: 99.8%,inactive: 102%
BrCCN(CCBr)CCCN(CCBr)CCBr,inactive: 101%,inactive: 97%,inactive: 96.5%,inactive: 102%,inactive: 102%,inactive: 94.3%,inactive: 98.5%,inactive: 110%,inactive: 101%
Cc1ccc(NC2(C(N)=O)CCNCC2)cc1,inactive: 103%,inactive: 104%,inactive: 79.5%,inactive: 106%,inactive: 106%,inactive: 95.1%,inactive: 97.2%,inactive: 94.4%,inactive: 102%
ClCCSC(SCCCl)=C(SCCCl)SCCCl,inactive: 75.5%,,inactive: 73.6%,inactive: 102%,inactive: 77.1%,inactive: 47.9%,inactive: 73.6%,inactive: 85.9%,inactive: 92.6%

Structure (SMILES),growth (NCI/ADR-RES ovarian),growth (T-47D breast),growth (BT-549 breast),growth (MDA-MB-435 melanoma),growth (SW-620 colon),growth (MCF7 breast),growth (HCT-116 colon),growth (HCC-2998 colon),growth (KM12 colon)
ClCCN1[C@@H](CCl)CC[C@@H]1c1ccccc1,inactive: 95.7%,inactive: 102%,inactive: 83.1%,inactive: 99.6%,inactive: 94.4%,inactive: 84.3%,inactive: 96%,inactive: 88.2%,inactive: 108%
ClCCN(CCCl)CCc1ccccc1,inactive: 98.3%,inactive: 95.3%,inactive: 98.7%,inactive: 115%,inactive: 97.9%,inactive: 94.1%,inactive: 101%,inactive: 100%,inactive: 108%
N#Cc1ccc(N(CCCl)CCCl)cc1,inactive: 119%,inactive: 92.9%,inactive: 113%,inactive: 97.9%,inactive: 104%,inactive: 102%,inactive: 99.2%,,inactive: 108%
O=C(O)c1ccc(N(CCCl)CCCl)cc1,inactive: 109%,inactive: 107%,inactive: 109%,inactive: 102%,inactive: 103%,inactive: 99.5%,inactive: 109%,inactive: 107%,inactive: 108%
NC(=O)C1(Nc2ccccc2)CCN(Cc2ccccc2)CC1,inactive: 106%,inactive: 106%,inactive: 100%,inactive: 109%,inactive: 109%,inactive: 104%,inactive: 111%,inactive: 109%,inactive: 107%
Cc1cccc(C(=O)N(CCCl)CCCl)c1,inactive: 106%,inactive: 101%,inactive: 101%,inactive: 96.4%,inactive: 102%,inactive: 90.8%,inactive: 103%,inactive: 99.6%,inactive: 110%
NC(Cc1ccccc1N(CCCl)CCCl)C(=O)O (configuration not stated),inactive: 61.7%,inactive: 51.7%,,inactive: 97.9%,inactive: 65.8%,inactive: 49%,inactive: 69%,active: -46.5%,inactive: 92.1%
Cc1cccc(CN(CCCl)CCCl)c1,inactive: 95.4%,inactive: 87.4%,inactive: 93.7%,inactive: 105%,,inactive: 85.8%,inactive: 84.6%,inactive: 95.5%,inactive: 103%
Cc1ccc(C(=O)N(CCCl)CCCl)cc1,inactive: 108%,inactive: 96.6%,inactive: 103%,inactive: 98.7%,inactive: 101%,inactive: 88.3%,inactive: 98.6%,inactive: 101%,inactive: 112%
Cc1ccc(NC2(C#N)CCN(Cc3ccccc3)CC2)cc1,inactive: 106%,inactive: 87.4%,inactive: 96%,inactive: 96.4%,inactive: 107%,inactive: 103%,inactive: 92.2%,inactive: 95.7%,inactive: 109%
ClCCN(CCCl)Cc1ccc2c(c1)OCO2,inactive: 80.6%,inactive: 70.3%,inactive: 75.2%,inactive: 112%,inactive: 76.9%,inactive: 51.4%,inactive: 72.3%,inactive: 87.4%,inactive: 105%
CCOC(=O)c1ccc(N(CCCl)CCCl)cc1,inactive: 103%,inactive: 102%,inactive: 103%,inactive: 106%,inactive: 104%,inactive: 103%,inactive: 95.5%,inactive: 109%,inactive: 111%
N#CC(C#N)=Cc1ccc2c(c1)OCO2,inactive: 103% and inactive: 105%,inactive: 98.4%,inactive: 109% and inactive: 89.7%,inactive: 109% and inactive: 107%,inactive: 98.1% and inactive: 106%,inactive: 103% and inactive: 88.6%,inactive: 96.2% and inactive: 93.6%,inactive: 105% and inactive: 106%,inactive: 104% and inactive: 102%
COc1ccc(N)cc1CN(CCCl)CCCl,inactive: 70.6%,inactive: 49.9%,inactive: 73.9%,inactive: 98.2%,inactive: 66.2%,inactive: 49.8%,inactive: 62.4%,inactive: 80.2%,inactive: 94.6%
COc1c(C)cc(N(CCCl)CCCl)c2ccccc12,inactive: 48.1%,inactive: 49.5%,inactive: 58%,inactive: 57.3%,inactive: 65.9%,inactive: 29.8%,inactive: 61.4%,inactive: 74.7%,inactive: 93.8%
Cc1ccccc1CN(CCCl)CCCl,inactive: 96%,inactive: 96.5%,inactive: 98.1%,inactive: 111%,inactive: 93.2%,inactive: 97.8%,inactive: 100%,inactive: 89.3%,inactive: 112%
